System: PBMCs
Assay: PHA-induced proliferation of PBMC in the presence of albumin peptides and/or dHSA
Assay type: cell-based, human
Description: Venous blood was drawn from healthy volunteers or from cancer patients in glass vacuum tubes with acid dextrose citrate solution A as anti-coagulant (Vacutainer, Becton Dickinson, Franklin Lakes, N.J.). Erythrocytes were removed by sedimentation on 2% dextran T500 solution (Amersham Pharmacia Biotech AB, Uppsala, Sweden) in 0.9% NaCl (this step was omitted for cultures with PHA-stimulation-see below). […] For cell cultures with PHA-stimulation, PBMC were washed in Hank's Balanced Salt Solution (HBSS) with 10% autologous plasma instead of RPMI/2% HSA. Cell viability was assessed by exclusion of 0.05% Trypan Blue and was always above 95%. The cell suspension was stained with Turk's solution and the number of lymphocytes and monocytes in the PBMC preparation were counted in a hemocytometer. PBMCs were suspended in RPMI/2% HSA and the cell concentration adjusted to 5×10^5 lymphocytes/ml.
PBMC from healthy volunteers, were resuspended in RPMI1640 with or without the addition of dHSA and/or albumin peptides, as indicated, at a cell concentration of 5×10^5 lymphocytes/ml. 100 μl of the cell suspension were seeded into round-bottomed microtiter plates (Corning, N.Y., USA) followed by 100 μl of culture medium consisting of RPMI 1640 (Flow Laboratories, Irvine, Scotland) supplemented with 200 IU/ml Penicillin, 200 μg/ml Streptomycin (Flow laboratories) and 20% heat inactivated autologous serum. Phytohemagglutinin (PHA-P, Sigma Chemical Co, St. Louis, Mo.) at a final concentration of 5 or 10 μg/ml was then added.
All culture conditions were set up in triplicate wells. […] Mean values of disintegrations per minute (dpm) of triplicates were used for the calculations.

dHSA: Human serum albumin denatured with urea, reduced with dithiothretiol and alkylated with iodoacetamide
effect of dHSA on PHA induced proliferation of PBMCs (dHSA 8 μg/ml, 5 controls and 4 cancer patients): frequently resulted in stimulation of the proliferative rate | effect of dHSA on PHA induced proliferation of PBMCs (dHSA 8 μg/ml, two healthy controls): significantly increased the proliferative rate | effect of dHSA on PHA induced proliferation of PBMCs (patient P41, especially at PHA 10 μg/ml): inhibited proliferation

— patent US9796777B2, “Methods of treating malignant tumors” (Canimguide Therapeutics AB, priority 2007, dated 2017)
